In PubChem BioAssay AID2107 (National Center for Advancing Translational Sciences (NCATS), 2009):
Where “and” joins values, the source holds several entries; their conditions need not be identical. Equal entries are not always repeated. The list shows a part of the results, in another mix than the full data. Calls of active or inactive are those of the source. Calls follow the shape of the dose curve; as a rule, active = well fitted inhibition curve with a large enough effect; inconclusive = small, poorly fitted or top-dose-only effect, or effect the other way; inactive = flat fitted curve, though single readings scatter.

The chains behind the UniProt entries cited, without tags or fusion partners. Residues count along the entry.
UniProt P06280, 32-429 limits assumed: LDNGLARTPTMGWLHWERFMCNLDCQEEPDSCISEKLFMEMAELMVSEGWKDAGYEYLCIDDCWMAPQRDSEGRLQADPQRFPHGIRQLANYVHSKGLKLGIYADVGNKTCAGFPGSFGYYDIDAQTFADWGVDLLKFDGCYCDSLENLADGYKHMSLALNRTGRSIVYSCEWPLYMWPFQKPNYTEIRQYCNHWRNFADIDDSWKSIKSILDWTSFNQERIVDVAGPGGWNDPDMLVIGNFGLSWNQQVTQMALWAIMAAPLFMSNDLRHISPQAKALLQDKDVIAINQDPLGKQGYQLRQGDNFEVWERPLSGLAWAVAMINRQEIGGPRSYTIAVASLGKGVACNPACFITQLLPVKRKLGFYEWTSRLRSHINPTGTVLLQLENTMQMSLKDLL

biological target: Alpha-galactosidase A (Homo sapiens) (UniProt P06280); assay: qHTS Assay for Inhibitors and Activators of Human alpha-Galactosidase From Spleen Homogenate; conditions: 4MU-alpha-Gal fluorescence, 40 min; at 80 µM (top of the series);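 also: 0% = enzyme with vehicle and -100% = no enzyme basal signal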
Source text: NIH Chemical Genomics Center [NCGC] NIH Molecular Libraries Probe Production Centers Network [MLPCN] MLPCN Grant: R03 MH084842-01 Assay Submitter (PI): Wei Zheng NCGC Assay Overview: Alpha-galactosidase is a homodimeric glycoprotein that hydrolyzes the terminal alpha-galactosyl moieties from glycolipids and glycoproteins. Deficiency of this enzyme results in Fabry Disease with progressive accumulation of globotriaosylceramide and other glycosphingolipids in vascular endothelial cells that causes renal failure, myocardial infarction and stroke, and premature death in patients. […]
NCGC Assay Protocol Summary: This is a fluorogenic enzyme assay with 4-methylumbelliferyl-alpha-D-galactopyranoside as the substrate and human spleen homogenate containing alpha-galactosidase as the enzyme preparation. Upon hydrolysis of this fluorogenic substrate, the resulting product, 4-methylumbelliferone (which excites at 365 nm and emits at 440 nm) can be detected by a fluorescence plate reader. […] The AC50 values were determined from concentration-response data modeled with the standard Hill equation. […] (3) Add 2 ul of substrate (1 mM final) (4) Incubate at 37C for 40 min (5) Add 2 ul stop solution (1M NaOH and 1M Glycine mixture, pH 10) (6) Detect the assay plate in a ViewLux plate reader (PerkinElmer) with Ex=365 nm and Em=440nm. […]

Structure (SMILES) | activity change, negative = inhibition
CN(CCCl)CCCl | inactive: 3.19% and inactive: 10.5%
O=[N+]([O-])C(Cl)(Cl)Cl | inactive: 9.86%
